Test results: the NIST ThermoML archive (doi:10.1016/j.jct.2016.08.008)
± gives the expanded uncertainty stated by the source.

Experiment: activity coefficient (dimensionless); of the first substance listed, at infinite dilution; xn = mol fraction of the nth substance listed
Settings: 101.33 kPa, Liquid, Chromatography, x1 = 0

For `CCCCOCCCC` [dibutyl ether] + CCCCCCCCCCCCn1cc[n+](C)c1.O=S(=O)([N-]S(=O)(=O)C(F)(F)F)C(F)(F)F, which activity coefficient (318.15 K) is on record?
The activity coefficient was 2.46 ± 0.17.

And the activity coefficient (328.15 K)?
The activity coefficient was 2.51 ± 0.17.

What about the activity coefficient (338.15 K) of the same compound?
The activity coefficient was 2.57 ± 0.17.

And the activity coefficient (348.15 K)?
The activity coefficient was 2.62 ± 0.18.

What about the activity coefficient (358.15 K) of the same compound?
The activity coefficient was 2.67 ± 0.18.

What about the activity coefficient (368.15 K) of the same compound?
Its activity coefficient is 2.71 ± 0.18.
